One data set in a line: Azeotropic agents evaluated in vapor-liquid equilibrium still (separating water from t-butanol). The data set is classed as physicochemical. The following applies: azeotropic agent, water as overhead.
Take `CCC(C)C(C)=O` (stereo not shown) [3-Methyl-2-pentanone]: the “Relative Volatility” value worked out at 1.55.

The nature of another data set: Extractive agents evaluated in vapor-liquid equilibrium still (separating water from t-butanol). The data set is classed as physicochemical. The following applies: extractive agent, water as overhead.
`CCC(O)CO` (stereo not shown) [1,2-Butanediol]: the “Relative Volatility” value was 1.30.

As to `CCCCCCCCCC(C)=O` [2-Undecanone], the “Relative Volatility” value is 1.33.

Consider `CCCCCOC(=O)CC` [Amyl propionate], for which the “Relative Volatility” value worked out at 1.41.

In the case of `CCOC(=O)c1ccccc1O` [Ethyl salicylate], the “Relative Volatility” value turned out to be 1.32.

For `CCCCOCCO` [Ethylene glycol butyl ether], the “Relative Volatility” value is on record as 1.21.

Turning to `CCCCCCCCCCCO` [Undecyl alcohol], the “Relative Volatility” value is reported as 1.25.

Source of the values: patent US5084142A, “Separation of tertiary butyl alcohol from water by azeotropic or extractive distillation” (priority 1991, dated 1992).
